Measured values from ChEMBL document CHEMBL1909046, “DrugMatrix in vitro pharmacology data”.

Chains of the proteins cited; added tags and fusions are not shown. Lines headed by an entry give the natural chain unless they say otherwise; changes in a name come on top.
UniProt P35372, whole entry, looked up: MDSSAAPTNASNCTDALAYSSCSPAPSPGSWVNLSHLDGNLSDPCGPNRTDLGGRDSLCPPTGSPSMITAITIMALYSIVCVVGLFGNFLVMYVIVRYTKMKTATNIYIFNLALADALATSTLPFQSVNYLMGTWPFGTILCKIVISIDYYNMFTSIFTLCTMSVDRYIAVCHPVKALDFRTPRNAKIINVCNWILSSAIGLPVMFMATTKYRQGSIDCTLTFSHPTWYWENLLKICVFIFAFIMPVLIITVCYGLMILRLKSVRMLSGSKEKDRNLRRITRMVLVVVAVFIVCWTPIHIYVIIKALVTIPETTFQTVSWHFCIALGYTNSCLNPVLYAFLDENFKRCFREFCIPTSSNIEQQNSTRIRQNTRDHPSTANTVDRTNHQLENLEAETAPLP
UniProt P41145: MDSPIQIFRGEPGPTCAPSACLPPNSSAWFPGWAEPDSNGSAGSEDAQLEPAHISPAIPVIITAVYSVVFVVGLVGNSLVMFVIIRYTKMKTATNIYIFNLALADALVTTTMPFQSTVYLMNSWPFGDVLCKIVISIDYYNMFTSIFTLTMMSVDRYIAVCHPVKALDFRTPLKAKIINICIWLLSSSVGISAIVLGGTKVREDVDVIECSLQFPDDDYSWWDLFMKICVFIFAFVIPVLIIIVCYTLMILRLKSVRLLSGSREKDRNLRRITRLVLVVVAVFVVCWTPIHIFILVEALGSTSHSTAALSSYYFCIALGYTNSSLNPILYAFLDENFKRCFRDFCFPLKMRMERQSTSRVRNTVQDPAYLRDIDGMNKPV

What was measured:
[1] = molecular target: Mu-type opioid receptor (Homo sapiens, UniProt P35372); experiment: DRUGMATRIX: Opiate mu (OP3, MOP) radioligand binding (ligand: [3H] Diprenorphine); conditions: cho-k1
[2] = molecular target: Kappa-type opioid receptor (Homo sapiens, UniProt P41145); experiment: DRUGMATRIX: Opiate kappa (OP2, KOP) radioligand binding (ligand: [3H] Diprenorphine); conditions: hek293

CC(C)(C)NCC(O)c1cc(Cl)c(N)c(Cl)c1 (configuration not stated)
Not Active: IC50 [1] | Ki [1] | IC50 [2] | Ki [2]

C=CCO [ALLYL ALCOHOL]
Not Active: IC50 [1] | Ki [1] | IC50 [2] | Ki [2]

O=[N+]([O-])c1cc([As](=O)(O)O)ccc1O
Not Active: IC50 [1] | Ki [1] | IC50 [2] | Ki [2]

CCN(CC)N=O [N-NITROSODIETHYLAMINE]
Not Active: IC50 [1] | Ki [1] | IC50 [2] | Ki [2]

N#C[C@H](O[C@@H]1O[C@H](CO[C@@H]2O[C@H](CO)[C@@H](O)[C@H](O)[C@H]2O)[C@@H](O)[C@H](O)[C@H]1O)c1ccccc1
Not Active: IC50 [1] | Ki [1] | IC50 [2] | Ki [2]

C=C(Cl)Cl [1,1-DICHLOROETHENE]
Not Active: IC50 [1] | Ki [1] | IC50 [2] | Ki [2]

CCN1C[C@]2(COC)[C@H](O)C[C@H](OC)[C@@]34[C@@H]5C[C@@]6(O)[C@H](OC(=O)c7ccccc7)[C@@H]5[C@@](OC(C)=O)([C@@H]([C@H](OC)[C@H]23)[C@@H]14)[C@@H](O)[C@@H]6OC [ACONITINE]
Not Active: IC50 [1] | Ki [1] | IC50 [2] | Ki [2]

COc1ccc(C(CN(C)C)C2(O)CCCCC2)cc1 (configuration not stated)
Not Active: IC50 [1] | Ki [1] | IC50 [2] | Ki [2]

CC(C)c1cccc(C(C)C)c1O
Not Active: IC50 [2] | Ki [2]

Oc1ccc(/C=C/c2cc(O)cc(O)c2)cc1 [RESVERATROL]
Not Active: IC50 [1] | Ki [1] | IC50 [2] | Ki [2]

C[C@@H]1C[C@@H]([C@H](O)CC2CC(=O)NC(=O)C2)C(=O)[C@@H](C)C1
Not Active: IC50 [1] | Ki [1] | IC50 [2] | Ki [2]
